This assay concerns the target human Nav1.7 (Homo sapiens (Human), UniProt Q15858). The assay can be described thus: FLIPR or FLIPR TETRA sodium dye assay with KCl and test article pre-incubation. The format is cell-based. The settings on record: sodium dye assay with KCl; recombinant Nav1.7/HEK293 cells; read-out: Nav1.7 IC50 (μM) ± SEM.

By UniProt entry, the sequences of proteins in these tests, tags left out. Chains listed by the source or under a name are the forms on record and can include a tag or linker.
UniProt Q15858, other isoform, or with tags, fused parts or gaps: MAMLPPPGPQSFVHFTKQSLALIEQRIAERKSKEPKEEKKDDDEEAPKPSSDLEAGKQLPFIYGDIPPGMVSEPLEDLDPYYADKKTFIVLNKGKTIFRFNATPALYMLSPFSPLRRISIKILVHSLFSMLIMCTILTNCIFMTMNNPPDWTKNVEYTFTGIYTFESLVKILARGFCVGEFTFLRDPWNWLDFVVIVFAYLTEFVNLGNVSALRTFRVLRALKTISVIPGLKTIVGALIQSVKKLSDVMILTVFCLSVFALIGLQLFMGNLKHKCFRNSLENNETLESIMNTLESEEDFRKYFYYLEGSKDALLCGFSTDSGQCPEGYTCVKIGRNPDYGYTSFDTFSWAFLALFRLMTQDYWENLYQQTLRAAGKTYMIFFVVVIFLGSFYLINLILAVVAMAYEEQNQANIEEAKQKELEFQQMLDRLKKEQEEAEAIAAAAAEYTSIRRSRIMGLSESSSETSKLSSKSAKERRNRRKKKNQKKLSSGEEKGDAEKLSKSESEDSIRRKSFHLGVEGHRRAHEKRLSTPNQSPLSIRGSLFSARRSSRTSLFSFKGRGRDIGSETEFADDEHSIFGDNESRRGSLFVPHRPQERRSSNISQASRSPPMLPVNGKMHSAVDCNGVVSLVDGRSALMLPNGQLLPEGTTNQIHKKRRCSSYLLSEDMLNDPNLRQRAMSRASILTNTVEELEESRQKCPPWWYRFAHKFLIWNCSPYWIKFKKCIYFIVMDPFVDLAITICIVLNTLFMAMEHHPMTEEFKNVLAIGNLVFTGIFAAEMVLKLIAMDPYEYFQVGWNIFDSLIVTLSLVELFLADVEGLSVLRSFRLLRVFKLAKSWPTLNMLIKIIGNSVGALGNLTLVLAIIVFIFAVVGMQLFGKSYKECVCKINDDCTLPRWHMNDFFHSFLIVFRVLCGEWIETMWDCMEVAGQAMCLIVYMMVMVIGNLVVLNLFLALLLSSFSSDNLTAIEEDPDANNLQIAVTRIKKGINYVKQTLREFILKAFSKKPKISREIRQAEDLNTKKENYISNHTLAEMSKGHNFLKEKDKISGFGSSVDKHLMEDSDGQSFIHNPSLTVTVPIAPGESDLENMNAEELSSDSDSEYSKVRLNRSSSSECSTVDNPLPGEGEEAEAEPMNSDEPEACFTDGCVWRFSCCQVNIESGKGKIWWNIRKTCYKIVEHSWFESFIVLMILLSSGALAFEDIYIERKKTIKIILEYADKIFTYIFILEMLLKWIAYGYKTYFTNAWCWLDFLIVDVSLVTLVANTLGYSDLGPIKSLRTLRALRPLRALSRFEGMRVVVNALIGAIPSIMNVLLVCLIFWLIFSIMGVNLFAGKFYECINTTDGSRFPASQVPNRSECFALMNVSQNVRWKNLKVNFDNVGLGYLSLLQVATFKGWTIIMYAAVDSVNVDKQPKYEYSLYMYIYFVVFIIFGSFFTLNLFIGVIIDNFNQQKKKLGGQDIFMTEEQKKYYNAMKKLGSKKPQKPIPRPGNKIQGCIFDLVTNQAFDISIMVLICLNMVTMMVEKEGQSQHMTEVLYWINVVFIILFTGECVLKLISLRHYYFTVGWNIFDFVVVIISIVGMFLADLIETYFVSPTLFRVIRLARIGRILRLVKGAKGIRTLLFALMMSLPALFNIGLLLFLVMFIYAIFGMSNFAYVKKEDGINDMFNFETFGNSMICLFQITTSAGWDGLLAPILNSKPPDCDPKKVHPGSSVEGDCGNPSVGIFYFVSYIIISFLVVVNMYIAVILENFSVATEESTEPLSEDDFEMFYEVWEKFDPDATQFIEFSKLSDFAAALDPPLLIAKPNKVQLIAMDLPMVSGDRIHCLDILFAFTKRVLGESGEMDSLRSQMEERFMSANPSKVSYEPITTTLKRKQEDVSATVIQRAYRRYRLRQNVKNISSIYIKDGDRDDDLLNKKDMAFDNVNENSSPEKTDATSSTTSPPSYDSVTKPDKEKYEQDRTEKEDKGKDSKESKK

For orientation: IC50 means the midpoint of a concentration-inhibition curve. On to `O=C(NCCNS(=O)(=O)c1cccnc1)c1cccc(-c2ccc(Oc3ccc(F)cc3)cc2)n1` [Compound 22, 6-(4-(4-fluorophenoxy)phenyl)-N-(2-(pyridine-3-sulfonamido)ethyl)picolinamide], for which the 50% inhibitory concentration (IC50) worked out at 0.31 ± 0.03 µM.
Take `C[C@H](NC(=O)c1cccc(-c2ccc(Oc3ccc(F)cc3)cc2)n1)C(N)=O` [Compound 38, 6-[4-(4-fluoro-phenoxy)-phenyl]-pyridine-2-carboxylic acid ((S)-1-carbamoyl-ethyl)-amide]: the 50% inhibitory concentration (IC50) worked out at 0.31 ± 0.03 µM.

These data come from patent US9120752B2, “Pyridine compounds as sodium channel blockers” (Purdue Pharma, L.P., priority 2010, dated 2015).
